Assays:
CDK1 = molecular target: T1, CDK1 (Homo sapiens, UniProt P06493); test: CDK-1 screening assay; assay type: biochemical
T1 construct: purchased New England Biolabs, Beverly, Mass; 6020; host or cells: insect cells
Protocol: (§1) 70 μL of the kinase reaction mixture was dispensed into the well of a streptavidin coated FlashPlate™ (Cat. #SMP103, NEN, Boston, Mass.).
(§2) Test compound stock in 100% DMSO (1 μL) was added to the wells resulting in a final concentration of 1% DMSO in the reaction with a 100 μL final reaction volume. Each enzyme was diluted in 50 mM Tris-HCl pH=8.0, 0.1% BSA and 30 μL was added to each well to initiate the reaction. The reaction was incubated for one hour at 30° C. At the end of the 1 hr incubation, the reaction was terminated by aspirating the mixture from the plate and washing the wells twice with PBS containing 100 mM EDTA. The biotinylated peptide substrate became immobilized on the Flashplate and the incorporation of ^33P-γ-ATP was measured by reading the plate on a scintillation counter. Inhibition of the enzymatic activity was measured by observing a reduced amount of ^33P-γ-ATP incorporated into the immobilized peptide.
(§3) A maximum and minimum signal for the assay was determined on each plate. The percent inhibition of a test compound was calculated according to the formula: […]
(§4) The term “ND” means “not determined.”

By UniProt entry, the sequences of proteins in these tests, tags left out.
UniProt P06493, whole entry: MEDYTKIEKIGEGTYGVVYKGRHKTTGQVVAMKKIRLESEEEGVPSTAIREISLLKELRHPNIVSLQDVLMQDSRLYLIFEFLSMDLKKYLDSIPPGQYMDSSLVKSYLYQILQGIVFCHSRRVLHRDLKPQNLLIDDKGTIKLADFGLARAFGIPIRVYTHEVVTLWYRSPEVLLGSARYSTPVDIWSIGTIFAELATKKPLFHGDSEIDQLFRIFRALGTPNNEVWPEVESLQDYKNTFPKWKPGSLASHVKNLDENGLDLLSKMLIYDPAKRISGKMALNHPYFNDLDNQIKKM

CDK2 = molecular target: T2, CDK2 (Homo sapiens, UniProt P24941); test: CDK-2 screening assay; assay type: biochemical
T2 construct: purchased Upstate Biotech, Lake Placid, N.Y
Protocol: as §1, §2
The CDK2 enzyme in complex with cyclin A is commercially available (Upstate Biotech, Lake Placid, N.Y.).
as §3, §4

Work on `NS(=O)(=O)c1ccc(Nc2nc(OCC3CCCCC3)c3cn[nH]c3n2)cc1` [Cpd 23, 4-(4-cyclohexylmethoxy-1H-pyrazolo[3,4-d]pyrimidin-6-ylamino)-benzenesulfonamide] yielded an IC50 (CDK1) of 0.662 µM and an IC50 (CDK2) of 0.052 µM.

Source: patent US8314234B2, “Bicyclic pyrimidine kinase inhibitors” (Janssen Pharmaceutica N.V., priority 2006, dated 2012)
